Literature values as cited in patent US4598087A, “Substituted trans-1,2-diaminocyclohexyl amide compounds” (dated 1986).

Test system: kappa
Settings: P. V. Vanvoigtlander, et al.

In the case of `CN(C(=O)Cc1ccc(Cl)c(Cl)c1)[C@@H]1CCCC[C@H]1N1CCCC1` (relative stereo), the “selective kappa agonist activity” value is listed as “selective kappa agonist activity”.
